Assay: Solubility in water
Type: physicochemical
Conditions: description of test compound in LD50 report
Method: The resultant solution was spray dried to yield a salt of hydroxycitric acid with the following analysis: potassium content 11% to 18%, calcium content 5% to 12%, structural moisture 3% to 5% and hydroxycitric acid content 70% to 76%. The sodium content was less than 0.5% and lactone less than 0.5%. […] This salt composition is tasteless and white in color. A solution of 5 g in 100 ml of de-ionized sterile water was subjected to an accelerated storage study chamber for 2 months.

Substance: Combined Potassium-Calcium Salts of Hydroxycitric Acid [Example 3]
- Solubility: Soluble In Water

Reference: US7507421B2, “Hydroxycitric acid salt composition and method of making” (Unibar Corporation, priority 2002, dated 2009)
